The source of these data is paper PMC6007947, “Sensitivity of pretargeted immunoPET using ^68Ga-peptide to detect colonic carcinoma liver metastases in a murine xenograft model: Comparison with ^18FDG PET-CT” (Oncotarget, 2018).

Each structure is given as a SMILES string.

This data set deals with hepatic LS174T metastases. Further details: species or system nude mice. The conditions noted are these: mouse, in vivo.

As for `OC[C@H]1OC(O)[C@H](F)[C@@H](O)[C@@H]1O` (stereo partly drawn) [^18FDG-PET, Fluorine-18 fluorodeoxyglucose], the “Biodistribution uptake, Blood” value is on record as 1.21 ± 0,20 %ID; the “Biodistribution uptake, Bone” value was found to be 3.85 ± 0.40 %ID; the “Biodistribution uptake, Heart” value is listed as 61.57 ± 10.53 %ID; the “Biodistribution uptake, Intestine” value is 4.99 ± 0.52 %ID. Besides, the “Biodistribution uptake, Kidney” value is given as 6.57 ± 0.77 %ID; the “Biodistribution uptake, Liver” value turned out to be 2.26 ± 0.33 %ID; the “Biodistribution uptake, Lung” value was 5.77 ± 0.50 %ID; the “Biodistribution uptake, Muscle” value turned out to be 5.93 ± 1.78 %ID. Besides, the “Biodistribution uptake, Skin” value stood at 3.08 ± 0.17 %ID; the “Biodistribution uptake, Spleen” value turned out to be 4.52 ± 0.37 %ID; the “Biodistribution uptake, Stomach” value was found to be 3.43 ± 0.45 %ID. For the same compound, the “Biodistribution uptake, Tumor” value (iv) is given as 7.61 ± 1.53 (n=10) %ID.
